From ChEMBL document CHEMBL1138608, “The discovery of potent, selective, and orally bioavailable PDE9 inhibitors as potential hypoglycemic agents” (Bioorg Med Chem Lett, 2009)

Chains of the proteins cited; added tags and fusions are not shown. Lines headed by an entry give the natural chain unless they say otherwise; changes in a name come on top.
UniProt O76083: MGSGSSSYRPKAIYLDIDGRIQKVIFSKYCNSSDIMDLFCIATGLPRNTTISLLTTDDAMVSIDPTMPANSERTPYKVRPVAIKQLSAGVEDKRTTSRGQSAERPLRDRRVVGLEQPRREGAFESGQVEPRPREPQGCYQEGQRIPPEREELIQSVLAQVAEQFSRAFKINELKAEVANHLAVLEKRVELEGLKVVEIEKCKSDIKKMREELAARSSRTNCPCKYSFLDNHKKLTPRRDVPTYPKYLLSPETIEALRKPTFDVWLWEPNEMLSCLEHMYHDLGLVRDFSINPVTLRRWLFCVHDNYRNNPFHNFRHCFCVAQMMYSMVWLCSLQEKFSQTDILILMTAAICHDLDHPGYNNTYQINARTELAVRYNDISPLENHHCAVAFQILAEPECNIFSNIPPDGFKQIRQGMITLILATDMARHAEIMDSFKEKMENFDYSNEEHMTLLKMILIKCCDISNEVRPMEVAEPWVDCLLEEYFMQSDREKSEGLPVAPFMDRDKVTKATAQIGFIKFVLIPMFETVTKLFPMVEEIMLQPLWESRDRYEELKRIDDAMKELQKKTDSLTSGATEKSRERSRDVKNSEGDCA

Target: High affinity cGMP-specific 3',5'-cyclic phosphodiesterase 9A (Homo sapiens, UniProt O76083)
Test: Inhibition of human recombinant PDE9 expressed in SF9 cells by scintillation proximity assay

IC50: 10 nM
Compound: CC(C)c1n[nH]c2c(=O)[nH]c(Cc3cccc(Cl)c3)nc12
